{
  "sequences": {"note": "The chains behind the UniProt entries cited, without tags or fusion partners.", "UniProt P33535, whole entry": "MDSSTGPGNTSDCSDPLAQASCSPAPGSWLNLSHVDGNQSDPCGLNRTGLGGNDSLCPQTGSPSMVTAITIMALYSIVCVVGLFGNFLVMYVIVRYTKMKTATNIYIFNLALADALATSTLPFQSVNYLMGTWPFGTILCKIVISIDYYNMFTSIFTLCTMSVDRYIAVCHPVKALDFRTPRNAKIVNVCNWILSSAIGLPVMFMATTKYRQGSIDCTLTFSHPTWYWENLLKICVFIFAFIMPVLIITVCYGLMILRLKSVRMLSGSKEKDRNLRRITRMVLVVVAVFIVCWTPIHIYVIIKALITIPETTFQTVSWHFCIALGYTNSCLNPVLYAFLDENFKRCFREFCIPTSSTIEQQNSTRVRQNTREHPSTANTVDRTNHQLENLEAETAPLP"},
  "source": "patent EP0612845A2",
  "about": "(priority 1993, dated 1994)",
  "key": {"[1]": {"molecular_target": "T1, m-opiate receptor (mOR) cDNA RC8-1 expressed in COS cells (Rattus norvegicus, UniProt P33535)", "T1 construct": "expressed in transfected cells; host or cells: COS cells, transient electroporation with pcDNA1RC8-1; membranes", "assay": "biochemical", "assay_type": "binding"}, "[2]": {"molecular_target": "T1, m-opiate receptor (mOR) cDNA RC8-1 expressed in COS cells", "assay_type": "binding"}},
  "data": [
    {"compound": "C[C@@H](NC(=O)[C@@H](N)Cc1ccc(O)cc1)C(=O)NCC(=O)N(C)[C@@H](Cc1ccccc1)C(=O)NCCO", "note": "[[³H]DAMGO, [D-Ala2,N-methyl-Phc4,Glyo15] enkephalin]", "values": [
      {"measurement": "Kd", "setting": "[1]", "result": 0.4, "unit": "nM"}
    ]},
    {"compound": "D-Ala2,D-Leu5 enkephalin [DADLE]", "values": [
      {"measurement": "potency in displacing binding of [³H]DAMGO", "setting": "[2]", "result": "high potency"}
    ]}
  ]
}
